The target in test [1] is human recombinant ETA receptors (Homo sapiens, UniProt P25101). As to the kind of experiment: Inhibition of [125I]ET-1 binding to membranes from CHO cells carrying human ETA receptors. Particulars: read-out: IC50 ETA; CHO cell membranes, 8 pM [125I]ET-1, 2 h at 20° C.
The target in test [2] is human recombinant ETB receptors (Homo sapiens, UniProt P24530). As to the kind of experiment: Inhibition of [125I]ET-1 binding to membranes from CHO cells carrying human ETB receptors. The settings on record: read-out: IC50 ETB; CHO cell membranes, 8 pM [125I]ET-1, 2 h at 20° C.

Chains of the proteins cited; added tags and fusions are not shown. Residues count along the entry.
UniProt P25101, 21-427 limits assumed: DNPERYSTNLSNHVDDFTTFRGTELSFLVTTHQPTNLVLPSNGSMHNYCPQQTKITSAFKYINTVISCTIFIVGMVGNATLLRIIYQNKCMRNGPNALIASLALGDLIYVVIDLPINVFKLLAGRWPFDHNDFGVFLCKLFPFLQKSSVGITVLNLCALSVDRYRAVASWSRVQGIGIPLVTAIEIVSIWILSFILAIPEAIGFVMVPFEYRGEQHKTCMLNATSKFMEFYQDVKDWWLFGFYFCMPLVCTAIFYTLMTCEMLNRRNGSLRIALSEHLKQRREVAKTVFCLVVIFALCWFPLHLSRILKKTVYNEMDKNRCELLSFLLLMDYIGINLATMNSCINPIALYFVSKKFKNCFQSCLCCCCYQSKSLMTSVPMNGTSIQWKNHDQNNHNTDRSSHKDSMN
UniProt P24530, 27-442 limits assumed: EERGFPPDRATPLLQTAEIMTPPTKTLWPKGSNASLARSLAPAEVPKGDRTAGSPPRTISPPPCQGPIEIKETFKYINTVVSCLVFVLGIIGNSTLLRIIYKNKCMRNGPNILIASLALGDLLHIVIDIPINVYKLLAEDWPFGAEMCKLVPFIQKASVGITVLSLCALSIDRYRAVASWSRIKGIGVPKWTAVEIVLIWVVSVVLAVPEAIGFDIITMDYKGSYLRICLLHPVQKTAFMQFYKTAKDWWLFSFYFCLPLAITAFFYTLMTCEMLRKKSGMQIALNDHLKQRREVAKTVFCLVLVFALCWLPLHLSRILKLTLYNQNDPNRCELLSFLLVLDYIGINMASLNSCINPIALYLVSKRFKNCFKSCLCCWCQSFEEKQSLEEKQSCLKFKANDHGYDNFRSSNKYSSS

Each structure is given as a SMILES string. pIC50: −log10 of the molar value.

A word on the pIC50: it is the IC50 on a negative log10 scale, so that one unit is a factor of ten. Turning to `COc1ccc(Cl)c(Oc2c(NS(=O)(=O)/C=C/c3ccccc3)ncnc2OCCOc2ncc(SC)cn2)c1`, the pIC50 in test [1] is 8.37; in test [2], 6.84.
`COc1cccc(Oc2c(NS(=O)(=O)/C=C/c3ccccc3)nc(N3CCOCC3)nc2OCCOc2ncc(Br)cn2)c1`: the values for the pIC50 in test [1] and in test [2] were 7.59 and 5.51, respectively.
`COc1ccccc1Oc1c(NS(=O)(=O)/C=C/c2ccccc2)nc(-c2ccncc2)nc1OCCOc1ncc(Cl)cn1` [Example 164]: the pIC50 in test [1] was 7.82; in test [2], 6.12.
In the same order, the values of `Cc1ccc(/C=C/S(=O)(=O)Nc2ncnc(OCCOc3ncc(Br)cn3)c2-c2ccc(Cl)cc2)cc1` are 7.62 and 6.56.
`O=S(=O)(/C=C/c1ccccc1)Nc1ncnc(OCCOc2ccc(Br)cn2)c1-c1ccc(Cl)cc1`: the figures for the pIC50 in test [1] and in test [2] were 7.38 and 6.27, respectively.
In the same order, the values of `COc1cnc(OCCOc2ncnc(NS(=O)(=O)/C=C/c3ccccc3)c2-c2ccc(Cl)cc2)nc1` are 7.97 and 6.08.
With `Cc1cnc(OCCOc2ncnc(NS(=O)(=O)/C=C/c3ccccc3)c2-c2ccc(Cl)cc2)nc1`, the pIC50 was 7.57 in test [1] and 5.38 in test [2].
As for `Cc1ccc(-c2c(NS(=O)(=O)/C=C/c3ccccc3)ncnc2OCCOc2ncc(C)cn2)cc1`, the pIC50 in test [1] is 7.54; in test [2], 5.40.

For the origin of these results see patent US6951856B2, “Arylethene-sulfonamides” (Actelion Pharmaceuticals Ltd., priority 2000, dated 2005).
